The record followed here is patent US9579346B2.

One assay relates to normal PBMCs. As to the kind of experiment: Two chamber migration study of PBMCs towards chemoattractant. Particulars: 300 micromolar, 4 hours, 10% FBS as chemoattractant.
Assay [1] deals with normal peripheral blood mononuclear cells (PBMC). In words: CD16 expression on CD14+ cells of normal PBMCs, flow cytometry. Conditions: five samples of normal PBMCs, various concentrations, three days. In general terms: In flow cytometry, cells or beads pass a laser one at a time.
The next assay relates to CD14+ cells. In words: CD16 expression in CD14+ cells and monocyte toxicity, various compounds (FIG. 8). Conditions: 300 micromolar concentration (FIG. 8).
A further assay concerns EAE mice. In words: Experimental Autoimmune Encephalomyelitis (EAE) mouse model of multiple sclerosis. Conditions: chlorite injections, planned experiment.

In the case of sodium chlorite, the “migration response of PBMCs to chemoattractants (chemotaxis index)” value in the assay with normal PBMCs is “blocked the migration response”. The “median CD16 expression levels on CD14+ cells (CD14CD16 on PBMCs)” value in assay [1] is “decreased”. For the same substance, the “CD16 expression in CD14+ cells” value in the assay with CD14+ cells is “decreased”. The “treating EAE in mice” value in the assay on EAE mice was “effective”.
